The source of these data is patent US20100269215A1, “Tfla gene which can degrade toxoflavin and its chemical derivatives and transgenic organisms expressing tfla gene” (SNU R&DB Foundation, priority 2006, published 2010).

The structures appear in SMILES notation.

Data set [1] has as its target Paenibacillus polymyxa JH2 TflA protein, wild type, N-terminal His-tagged (His-TflA), SEQ ID NO: 2 (Paenibacillus polymyxa, UniProt E3SET7). Particulars: toxoflavin 80-200 μM; 50 mM sodium phosphate pH 6.5; MnCl2 and DTT; Lineweaver-Burk plot.
The subject of data set [2] is Arabidopsis Col-0, transgenic plants with toxoflavin-resistant gene tflA. Particulars: 20 uM toxoflavin.

In the case of `Cn1ncnc2c(=O)n(C)c(=O)nc1-2` [toxoflavin], the Vmax in data set [1] is on record as −0.45 U/mg. Moreover, the growth entry in data set [2] was “normal growth”.
